Laboratory results reported in ChEMBL document CHEMBL4257222, “Use of small molecule inhibitors targeting eya tyrosine phosphatase” (2016).

Experiment: Selectivity index, ratio of IC50 for inhibition of PTP1B (unknown origin) by p-nitrophenylphosphate assay to IC50 for inhibition of mouse Eya3 catalytic domain (223 to 510 residues) by p-nitrophenylphosphate assay

SMILES: CCc1oc2ccccc2c1C(=O)c1cc(Br)c(O)c(Br)c1 [BENZBROMARONE]
- Ratio IC50: 4.7 to 6.5
